The values that follow come from ChEMBL document CHEMBL5506007, “Structure-based discovery of potent CARM1 inhibitors for colorectal cancer therapy” (Eur J Med Chem, 2024).

Calls of active or inactive are those of the source. No cut-off for these calls is given here.

A short description of experiment [1]: Selectivity index, ratio of IC50 for PRMT1 (unknown origin) to IC50 for CARM1 (unknown origin).
The target of experiment [2] is T1, Histone-arginine methyltransferase CARM1 (Homo sapiens) (UniProt Q86X55).
T1 sequence (whole entry): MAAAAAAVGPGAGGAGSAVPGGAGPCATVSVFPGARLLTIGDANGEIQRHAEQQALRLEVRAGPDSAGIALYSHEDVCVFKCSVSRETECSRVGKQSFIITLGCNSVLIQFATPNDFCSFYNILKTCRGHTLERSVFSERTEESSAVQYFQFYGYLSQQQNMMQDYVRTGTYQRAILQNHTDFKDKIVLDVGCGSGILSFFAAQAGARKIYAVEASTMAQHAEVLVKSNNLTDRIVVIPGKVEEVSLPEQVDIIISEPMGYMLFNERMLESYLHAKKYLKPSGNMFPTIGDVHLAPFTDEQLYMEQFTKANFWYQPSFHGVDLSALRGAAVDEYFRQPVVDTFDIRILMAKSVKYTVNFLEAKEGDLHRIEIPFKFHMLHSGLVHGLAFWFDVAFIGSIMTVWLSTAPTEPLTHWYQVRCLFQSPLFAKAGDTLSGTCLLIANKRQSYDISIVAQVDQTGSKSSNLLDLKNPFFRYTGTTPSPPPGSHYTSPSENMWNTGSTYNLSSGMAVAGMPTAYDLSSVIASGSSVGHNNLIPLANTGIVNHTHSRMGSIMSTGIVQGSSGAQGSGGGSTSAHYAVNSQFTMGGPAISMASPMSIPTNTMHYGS
Put plainly: Inhibition of CARM1 in human HCT-116 cells assessed as reduction in methylation of asymmetric dimethyl arginine incubated for 48 hrs by Western blot analysis. The experiment is classed as cell-based. Conditions: dose 0-10 µM. (In western blotting, separated proteins are transferred to a membrane and probed.)

Experiment [3] can be described thus: Selectivity index, ratio of IC50 for PRMT3 (unknown origin) to IC50 for CARM1 (unknown origin).
Experiment [4] addresses T1, Histone-arginine methyltransferase CARM1 (Homo sapiens). Kind of experiment: Inhibition of CARM1 in human HCT-116 cells assessed as reduction in methylation of asymmetric dimethyl-PABP1 incubated for 48 hrs by Western blot analysis. In kind it is cell-based. Conditions: dose 0-10 µM.
Experiment [5] is described as follows: Selectivity index, ratio of IC50 for PRMT8 (unknown origin) to IC50 for CARM1 (unknown origin).
The test system of experiment [6] is HCT-116. Put plainly: Antitumor activity against human HCT-116 cells assessed as inhibition of tumor growth at 10 to 25 mg/kg/day, ip administered for 12 days. The experiment is classed as functional, organism-based. Conditions: dose 10-25 mg/kg/day, time 12.0 day.
Experiment [7] can be described thus: Selectivity index, ratio of IC50 for PRMT6 (unknown origin) to IC50 for CARM1 (unknown origin).

`CCOCC1(COCC)CCC(Oc2ccccc2CN(C)C[C@@H](O)CNC)CC1`: the Ratio IC50 in experiment [1] was greater than 5; in experiment [3] it was 300; in experiment [5], greater than 3; in experiment [7] it was greater than 3. Moreover, the inhibition entry in experiment [2] and in experiment [4] was “Dose-Dependent Effect” in each case. For the same compound, the result in experiment [6] was Active.
